Assay outcomes as filed in PubChem.
Sampled rows, rich in hits. Any-hit rate of the full collection: about 1.9%.
FGF22 binding: shifts melting point of recombinant human FGF22; Q9HCT0; recombinant FGF22 thermal shift, SYPRO orange fluorescence; percent of sucrose octasulfate shift, DMSO zero; activity (Tm shift, normalised), % at 9.99 µM; 1.5% of 340,000 active; AID 651658;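 active = mean Tm shift, scaled 0 neutral to 100 positive control, at about 1.3% or above, every replicate too, limit read from the data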
UUG fidelity: alters start codon recognition fidelity in yeast. S. cerevisiae UUG-firefly luciferase reporter, luminescence/redox ratio. 350,000 tested, 0.13% active. activity score, % at 18.7 µM. AID 602363;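 active means replicate mean at a twofold rise or more, about +100% in these data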;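 further: firefly luciferase made from a UUG start codon reports start codon fidelity; reporter light over untreated wells divided by growth signal over untreated wells; some hits fall short of that in this replicate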
PglD inh: blocks C. jejuni PglD acetyltransferase activity. purified PglD enzyme, DTNB colorimetric CoA detection. inhibition, % at 12.5 µM. 0.098% of 360,000 active. AID 602405; in the data active = inhibition above about 16%, passing the limit was not always enough
ARNT-TACC3 inh: disrupts binding between human ARNT and TACC3; AID 623870; 0.66% of 390,000 active; AlphaScreen His-ARNT PAS-B/GST-TACC3 binding, luminescence; TACC3 fragment carries E629A point mutation; Q9Y6A5; inhibition, % at 9.99 µM;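 active = mean inhibition of replicates at least 50% and at least half of replicates each reaching 50%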;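 also: 0% = complete ARNT plus TACC3 wells and 100% = ARNT alone without TACC3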
ERp5 block: inhibitors of human ERp5 | ERp5 insulin aggregation, absorbance 650 nm, 90 min | inhibition, % at 9.99 µM | 0.05% of 350,000 active | Q15084;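 active = mean replicate inhibition above about 25%, with every replicate also reaching it, limit read from the data, passing the limit was not always enough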
PDI inh: blocks human protein disulfide isomerase activity; PDI insulin aggregation turbidity, A650, 90 min; P07237; AID 588391; inhibition, % at 10 µM; 0.052% of 350,000 active;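 active = mean inhibition across replicates of 30% or more, whatever share of single replicates reach that level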
Starred values were filed as active, the others as inactive.

How did Cc1cc(C(=O)Nc2cccc3c2O[C@H](CN(C)Cc2ccncc2)[C@@H](C)CN([C@H](C)CO)C3=O)n(C)n1 do in these assays?
FGF22 binding: 0; UUG fidelity: -9; PglD inh: 1; ARNT-TACC3 inh: -1; ERp5 block: 2

What do the screens show for `Cc1ccc(-c2cnc(N)n2C)cc1C`?
UUG fidelity: -29; PglD inh: -2; ARNT-TACC3 inh: 63*; PDI inh: 0

What do the screens show for `C[C@@H]1CN([C@@H](C)CO)C(=O)c2cc(NC(=O)c3ccncc3)ccc2O[C@@H](C)CCCCO[C@H]1CN(C)S(=O)(=O)c1ccc(F)cc1`?
FGF22 binding: 0; UUG fidelity: -6; PglD inh: -2; ARNT-TACC3 inh: -1; ERp5 block: 0

How did Cc1[nH]nc2c1C(c1cccs1)C1=C(CCCC1=O)N2 (stereo not given) do in these assays?
FGF22 binding: 43*; ARNT-TACC3 inh: -1; ERp5 block: 2; PDI inh: -1

What do the screens show for `C[C@H](CO)N1C[C@H](C)[C@@H](CN(C)Cc2ccncc2)Oc2ccc(NC(=O)NC3CCCCC3)cc2CC1=O`?
FGF22 binding: 0; UUG fidelity: 2; PglD inh: -2; ARNT-TACC3 inh: 24; ERp5 block: 2

What do the screens show for `Cc1nnsc1C(=O)N1CCCC(Nc2ccc(F)c(F)c2)C1` (stereo not given)?
FGF22 binding: 57*; UUG fidelity: -14; PglD inh: 4; ARNT-TACC3 inh: 7; ERp5 block: -1; PDI inh: -5

How did CS(=O)(=O)N(CC(=O)Nc1ccccc1C(=O)N1CCCC1)c1cccc([N+](=O)[O-])c1 do in these assays?
FGF22 binding: 0; ARNT-TACC3 inh: -2; ERp5 block: -1; PDI inh: 8

How did COc1ccc([N+](=O)[O-])cc1N(CC(=O)Nc1ccccc1C(=O)N1CCCC1)S(C)(=O)=O do in these assays?
FGF22 binding: 44*; ARNT-TACC3 inh: -2; ERp5 block: -2; PDI inh: 2

How did COc1ccc(CCNC(=O)CN(c2cc([N+](=O)[O-])ccc2OC)S(C)(=O)=O)cc1 do in these assays?
FGF22 binding: 43*; ARNT-TACC3 inh: -1; ERp5 block: 1; PDI inh: 10

How did CS(=O)(=O)N(CC(=O)Nc1ccccc1C(=O)N1CCCC1)c1ccc2c(c1)OCO2 do in these assays?
FGF22 binding: 43*; ERp5 block: -3; PDI inh: -5

What do the screens show for `CC1(C)N=C(N)NC(Nc2ccccc2Cl)=N1`?
FGF22 binding: 43*; UUG fidelity: -9; PglD inh: 4; ARNT-TACC3 inh: -5; ERp5 block: -8; PDI inh: -9

How did CCCNC(=O)[C@@H]1[C@@H](CO)[C@@H]2Cn3c(ccc(-c4ccccc4F)c3=O)[C@H]1N2C(=O)CC do in these assays?
FGF22 binding: 0; PglD inh: 2; ARNT-TACC3 inh: -3; ERp5 block: -2

How did N#Cc1ccc(OCC(=O)N/N=C(\CCC(=O)O)c2cccs2)cc1 do in these assays?
FGF22 binding: 43*; ARNT-TACC3 inh: -7; ERp5 block: 4; PDI inh: 11

What do the screens show for `COc1ccccc1C(=O)N1C[C@H]2[C@@H](c3ccccc31)[C@@H](CO)N2C(=O)C1CCCC1`?
FGF22 binding: 0; UUG fidelity: 11; PglD inh: 2; ARNT-TACC3 inh: -16; ERp5 block: 0

What do the screens show for `O=C(Nc1ccncc1)C1CC(=O)N(c2ccccc2)C1` (stereo not given)?
FGF22 binding: 0; UUG fidelity: -19; PglD inh: 6; ARNT-TACC3 inh: -5; ERp5 block: 28*; PDI inh: -6

What do the screens show for `C[C@@H]1CN([C@H](C)CO)C(=O)c2cc(NC(=O)Nc3ccccc3)ccc2O[C@@H](C)CCCCO[C@H]1CN(C)C(=O)Nc1ccc(C(F)(F)F)cc1`?
FGF22 binding: 0; ERp5 block: -4

What do the screens show for `O=C1NC(=O)C(Cc2ccccc2)(c2ccccc2)N1` (stereo not given)?
FGF22 binding: 0; UUG fidelity: -8; PglD inh: 3; ARNT-TACC3 inh: -1; ERp5 block: -3; PDI inh: -10

What do the screens show for `COc1ccc(CC2(c3ccccc3)NC(=O)NC2=O)cc1` (stereo not given)?
FGF22 binding: 43*; UUG fidelity: -18; PglD inh: -2; ARNT-TACC3 inh: 33; ERp5 block: 0; PDI inh: 22

2 consecutive records out of the list so far, quoted:
What do the screens show for `COc1ccccc1C(=O)N1C[C@H]2[C@@H](c3ccccc31)[C@@H](CO)N2C(=O)C1CCCC1`?
FGF22 binding: 0; UUG fidelity: 11; PglD inh: 2; ARNT-TACC3 inh: -16; ERp5 block: 0

What do the screens show for `O=C(Nc1ccncc1)C1CC(=O)N(c2ccccc2)C1` (stereo not given)?
FGF22 binding: 0; UUG fidelity: -19; PglD inh: 6; ARNT-TACC3 inh: -5; ERp5 block: 28*; PDI inh: -6
